Assay: Ex vivo quantitation of tissue Mn content by ICP-MS
Assay type: in vivo
Conditions: 24 h after injection of 0.1 mmol/kg, mice

With Mn-PyC3A-3-OBn [Complex 10] the “Mn levels / elimination 24 h after injection” value was “wholly eliminated”.

Reference: publication PMC6442678 (Journal of medicinal chemistry, 2018)
